Results as given in patent US11015179B2, “Peptide having anti-viral effect and composition containing same” (priority 2015, dated 2021).

Legend:
HBV [1] = assay: Antiviral effect with HSP90 blockage in whole HBV wild-type genome-transfected HepG2 cell line (real-time quantitative PCR); assay type: cell-based, hepatitis B virus; settings: HepG2, PEP1 5 μM, 24 hours
Protocol: PEP1 has been known to pass through a cell membrane from the outside to the inside of the cells in a shuttle method via HSP90. To confirm if the antiviral effect is reduced in cells by blocking the HSP90 activity based on such a mechanism, in this research, a HepG2 cell line was transiently transfected with the whole HBV wild-type genome, treated with anti-GAPDH, anti-HSP (1 ug/ml, blockage of HSP90 activity) and 17-AAG (1 μM) for 1 hour, ant then with PBS (0.5%), entecavir (ETV, 30 nM) and PEP1 (5 μM) for 24 hours. Subsequently, the supernatant was collected and treated with PEG6000 to precipitate the virus, and viral DNA was extracted and subjected to real-time quantitative PCR to observe an antiviral effect. All experiments are independently performed in triplicate, and a statistical significance test was performed using one-way ANOVA through the Tukey's Multiple Comparison Test. ** p<0.05 versus PBS, and ## p<0.05 versus None.

HBV [2] = assay: HBsAg ELISA in whole HBV W4P genome-transfected HepG2 cell line; assay type: cell-based, hepatitis B virus; settings: 48 hours
HSP90 and FKBP8 = assay: Immunoprecipitation of HSP90 and FKBP8 in JFH-1 cells; assay type: cell-based, human; settings: PEP1 10 μM, 48 hours, vs control
Protocol: For immunoprecipitation, 400 μg of a cell lysate was pre-washed with a protein A/G plus-agarose bead immunoprecipitant (Santa Cruz Biotechnology) for two hours and then centrifuged, followed by removing the beads. The supernatant was cultured with 4 μg of related antibodies, 20 μl of beads and a lysis buffer overnight at 4° C. The immunoprecipitation was prepared for immunoblotting of anti-HSP90 (Cell Signaling Technology) antibodies and FKBP8 (Thermo Fisher Scientific).
It has been known that HSP90 is involved in forming a complex of NS5A and FKBP8 for HCV RNA replication. Therefore, it was investigated if the inhibition of the HCV RNA replication by PEP1 is caused by the inhibition of the formation of a replication complex. The binding between HSP90 and FKBP8 was observed by treating the JFH-1 cells with PEP1. Specifically, the JFH-1 cells were cultured with PEP1 (10 μM) for 48 hours. Afterward, the proteins were subjected to immunoprecipitation with anti-FKBP8 antibodies or anti-HSP90 antibodies. Endogenous expression of HSP90 and FKBP8 was detected in untreated JFH-1 cells.

Huh7.5 cells = assay: Flow cytometry of FITC-conjugated PEP1 penetration into Huh7.5 cells; assay type: cell-based, human
Protocol: To assess the intracellular penetration of fluorescein isothiocyanate (FITC)-conjugated PEP1, the cell lines were treated with various materials, and further treated with the FITC-conjugated PEP1 for two hours, followed by FACS analysis. For LRP1 knockdown, 18 hours after siRNA was injected, the cells were washed with PBS and treated with FITC-conjugated PEP1 for two hours, peptides attached to the cells were completely removed by treatment with trypsin/EDTA (Invitrogen), and the cells were washed with an FACS buffer solution (PBS, 0.5% BSA), followed by analysis using BD FACS Fortessa (BD Biosciences, San Diego, Calif., USA). Data analysis was carried out using FlowJo software (version 9.7.7, TreeStar, Ashland, Oreg., USA).
In addition, to check if the oxidative stress has an influence on penetration of PEP1, PDTC was added to the JFH-1 cells, and H2O2 was added to Huh7.5 cells, thereby producing various oxidative levels. These treating conditions brought about different influences on eHSP secretion depending on ROS levels (FIGS. 8 and 9). In accordance with the assumption by the inventors, PEP1 penetration into the JFH-1 cells was decreased in the presence of PDTC, and PEP1 penetration was increased in the Huh7.5 cells in the presence of H2O2 (FIGS. 13 and 14).

HSP 90, SOD, ERK, JAK2 = assay: Liver protein expression (western blotting) in whole HBV W4P genome-transgenic mice; assay type: in vivo
Protocol: To observe a change in protein expression affecting the antiviral effect by the PEP1 peptide, transgenic mice prepared by injecting the whole HBV W4P variant genome were used. The PEP1 peptide was injected into the caudal vein of the mouse at a concentration of 50 μg/kg twice a week. As a control group, 500 μg/kg of 3TC was injected like the PEP1 peptide. On week 8, the whole blood was collected from the mouse, and proteins were extracted from the liver of the mouse and subjected to western blotting to observe expression of the proteins.

macrophages = assay: Differentiation of macrophages (FACS) in whole HBV W4P genome-transgenic mice; assay type: in vivo; settings: eight weeks; PEP1 50 μg/kg, 3TC 500 μg/kg; vs PBS
Protocol: Therefore, to observe if the PEP1 peptide is able to differentiate macrophages to M1, eight weeks after PBS, 50 μg/kg of the PEP1 peptide and 500 μg/kg of 3TC were injected into the caudal vein of each of transgenic mice prepared by injecting the whole HBV W4P variant genome twice a week, the whole blood was collected from the mouse and a kidney of the mouse was extracted, immune cells were isolated and stained with a macrophage marker (F4/80) and M1 marker MHCII through an extracellular cell surface staining method. Afterward, FACS analysis was carried out.

[3] = week 8, PEP1 50 μg/kg, 3TC 500 μg/kg

Question: Which results are given for `CC[C@H](C)[C@H](NC(=O)[C@H](Cc1ccccc1)NC(=O)[C@H](CCCNC(=N)N)NC(=O)[C@H](CC(C)C)NC(=O)[C@H](CCCNC(=N)N)NC(=O)[C@H](CO)NC(=O)[C@@H](NC(=O)[C@H](CC(C)C)NC(=O)[C@H](CC(C)C)NC(=O)[C@H](C)NC(=O)[C@@H]1CCCN1C(=O)[C@H](CCCNC(=N)N)NC(=O)[C@H](C)NC(=O)[C@@H](N)CCC(=O)O)[C@@H](C)O)C(=O)N1CCC[C@H]1C(=O)N[C@@H](CCCCN)C(=O)O` [PEP1, EARPALLTSRLRFIPK]?
Answer: Antiviral effect (viral DNA in supernatant), no blocking or GAPDH-blocked group (HBV [1]): statistically more significantly shown; Antiviral effect in group treated with HSP90 (anti-HSP) and 17-AAG (HBV [1]; 17-AAG 1 μM): no statistically significant antiviral effect; HBsAg in pellets (HBV [2]; HepG2, 0.01 μM or higher): showed inhibitory effects; Intracellular and extracellular HBsAg levels (HBV [2]; HepG2, 10 μM): exhibited inhibitory effects; HBsAg in supernatants (HBV [2]; HepG2, at 100 μM): showed no effect; HBsAg in supernatants (HBV [2]; HepG2, until 10 μM): showed inhibitory effects; Co-precipitation of HSP90 by FKBP8 (HSP90 and FKBP8): reduced; Penetration into Huh7.5 cells in the presence of H2O2 (Huh7.5 cells): increased; Expression of HSP 90 and SOD in liver (HSP 90, SOD, ERK, JAK2; week 8, PEP1 50 μg/kg twice a week): no effect; JAK2 phosphorylation in liver (HSP 90, SOD, ERK, JAK2; [3]): regulated; Protein phosphorylation of ERK in liver (HSP 90, SOD, ERK, JAK2; [3]): inhibited; Distribution of macrophages among myeloid-derived cells (macrophages): significantly increased; Number of cells differentiated to M1 (macrophages): increased, compared to the PBS group, but not significantly
